Literature values in patent US20200325487A1, “A COM[…] FOR REDUCING RANDOM I[…] WHEN TR[…]” (UNIVERSITEIT LEIDEN, priority 2017, published 2020).

Protein sequences, listed by entry. Tags and fused reporters are not part of them.
UniProt P49959, whole entry, species assumed: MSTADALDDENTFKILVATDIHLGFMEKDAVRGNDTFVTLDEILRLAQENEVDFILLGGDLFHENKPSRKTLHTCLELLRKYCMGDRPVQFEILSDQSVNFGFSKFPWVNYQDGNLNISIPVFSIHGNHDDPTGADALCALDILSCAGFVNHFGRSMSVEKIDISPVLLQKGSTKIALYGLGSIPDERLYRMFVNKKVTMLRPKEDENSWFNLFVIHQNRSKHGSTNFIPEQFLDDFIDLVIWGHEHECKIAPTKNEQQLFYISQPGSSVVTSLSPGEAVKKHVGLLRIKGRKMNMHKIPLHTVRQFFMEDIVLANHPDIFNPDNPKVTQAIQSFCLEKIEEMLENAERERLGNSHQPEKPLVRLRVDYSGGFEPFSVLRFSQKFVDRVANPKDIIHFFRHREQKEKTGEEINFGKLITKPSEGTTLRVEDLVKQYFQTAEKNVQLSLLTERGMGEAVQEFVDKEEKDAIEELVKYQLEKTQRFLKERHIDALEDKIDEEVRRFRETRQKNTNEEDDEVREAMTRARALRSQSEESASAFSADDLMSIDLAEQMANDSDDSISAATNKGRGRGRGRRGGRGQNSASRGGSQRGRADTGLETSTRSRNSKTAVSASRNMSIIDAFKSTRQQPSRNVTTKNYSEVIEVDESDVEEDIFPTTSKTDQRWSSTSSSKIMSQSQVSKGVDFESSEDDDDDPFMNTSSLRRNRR

Columns and labels:
[1] = system: Mre1-Rab50-Nbs1 (MRN)-ATM pathway; conditions: without affecting ATM protein kinase activity; cited from earlier work
Mre11 = Mre11 (Homo sapiens, UniProt P49959); conditions: cited from earlier work

Compound: [H]/N=C1/NC(=O)C(=Cc2ccc(O)cc2)S1 [Mirin, Z-5-(4-hydroxybenzylidene)-2-imino-1,3-thiazolidin-4-one]
- MRN-dependent activation of ATM [1]: prevents MRN-dependent activation of ATM
- Mre11-associated exonuclease activity (Mre11): inhibits Mre11-associated exonuclease activity
